# Values quoted from earlier work, collected in PMC10779255, “Novel Hydroxamic Acids Containing Aryl-Substituted 1,2,4- or 1,3,4-Oxadiazole Backbones and an Investigation of Their Antibiotic Potentiation Activity” (International Journal of Molecular Sciences, 2023).
# Tested on: P. aeruginosa
# Conditions: cited from earlier work
compound,measurement,value
"CCCc1cc(C2=N[C@@H](C(=O)NO)CO2)cc(OC)c1OC [L-161,240]",effect on growth and in vitro activity of P. aeruginosa,no effect
